{"source": "patent US7015343B2", "about": "“Sulphonated dehydrogenated sylvate, the preparation and use” (Shanghai Xingkang Pharmaceuticals Research & Development …, priority 2001, dated 2006)", "system": "KunMing mice", "settings": "oral administration, 14 days observing", "data": [{"substance": "Salts of Sulfodehydroabietic Acid with Zinc [NIPWZ]", "values": [{"measurement": "LD50", "value": "≥ 8000", "unit": "mg/kg"}]}]}
